From patent US9561197B2 (Horizon Therapeutics, LLC, priority 2012, dated 2017)

Columns and labels:
[1] = adult UCD, Study HPN-100-006; between maximum and minimum concentration
[2] = Patient 2
[3] = Patient 4, NaPBA 6 g/day for one week
[4] = NaPBA 450 mg/Kg/day for one week

sodium phenylbutyrate [NaPBA]
PAA (Patient 4 (person one), NaPBA 4 g per day): 110 µg/L
PAA:PAGN ratio (Patient 4, NaPBA 4 g per day): 1.2
PAGN (Patient 4, NaPBA 4 g per day): 85 µg/L
PAA [3]: 155 µg/L
PAA:PAGN ratio [3]: 1.4
PAGN [3]: 110 µg/L
fluctuation index for PAA over a 24 hour period [1]: 2150%
PAA [2, 4]: 280 µg/L
PAGN [2, 4]: 150 µg/L
clinical presentation [2, 4]: eating well and was no longer somnolent
PAA levels ([2]; NaPBA 600 mg/kg per day): 530 µg/L
PAA:PAGN ratio ([2]; NaPBA 600 mg/kg per day): > 2.5
PAGN levels ([2]; NaPBA 600 mg/kg per day): 178 µg/L
clinical presentation ([2]; NaPBA 600 mg/kg per day): poor feeding and somnolence

Like-named read-outs stand apart in the source and are kept apart here.
